Test results as given in US9181172B2, “Rhein conjugates, preparation method thereof and their uses in producing medicines for treating diabetic nephrosis, intestinal adhesion and osteoarthritis” (priority 2005, dated 2015).

Assay: Comparison of metal salts or conjugates hydro-acupuncture (water-carrier) preparation: pH value and clarity
Assay type: physicochemical
Conditions: 2.0 mg/ml in water, as dissolved
Experimental: Proper amount of different rhein or rhein-containing effective part metal salts or conjugates were put into a 10 ml volumetric flask, added with water, shaken and dissolved for constant volume, and then a water-carrier preparation was obtained. Rhein or rhein-containing effective part sodium salts or sylvan preparation are adjusted to the original pH with diluted hydrochloric acid and the results were shown in Table 4.

Rhein Arginine Conjugate
PH value: 6-7
clarity: clear
